Assay results reported in patent US20080248030A1, “Method of Treating Angiogenic Diseases” (Children's Medical Center Corporation, priority 2005, published 2008).

Experiments:
A2058 human melanoma = experiment: Antitumor activity on SCID mice bearing s.c. A2058 human melanoma; type: in vivo; conditions: s.c. A2058 study
From the text: Each group consisted of 5 mice.

Early mouse development = conditions: injected into 7 and 17 day-old BALB/c mice
LLC = experiment: Antitumor activity on C57BL/6J mice bearing s.c. LLC; conditions: 30 mg/kg q.o.d., data not shown

With “N-(2-lydroxypropyl)methacrylamide (HPMA) copolymer-TNP-470 conjugate [HPMA copolymer-TNP-470]” the “deaths due to toxicity, weight loss” value (A2058 human melanoma) was “neither deaths due to toxicity nor weight loss”, the water solubility (Water solubility) was “became soluble” and the “effect on normal development (weight gain)” value (Early mouse development) was “developed similarly to the control group”. The “induction of weight loss” value (LLC) was “did not induce weight loss”.
